By UniProt entry, the sequences of proteins in these tests, tags left out. Residues count along the entry.
UniProt P05556, 21-798 limits assumed: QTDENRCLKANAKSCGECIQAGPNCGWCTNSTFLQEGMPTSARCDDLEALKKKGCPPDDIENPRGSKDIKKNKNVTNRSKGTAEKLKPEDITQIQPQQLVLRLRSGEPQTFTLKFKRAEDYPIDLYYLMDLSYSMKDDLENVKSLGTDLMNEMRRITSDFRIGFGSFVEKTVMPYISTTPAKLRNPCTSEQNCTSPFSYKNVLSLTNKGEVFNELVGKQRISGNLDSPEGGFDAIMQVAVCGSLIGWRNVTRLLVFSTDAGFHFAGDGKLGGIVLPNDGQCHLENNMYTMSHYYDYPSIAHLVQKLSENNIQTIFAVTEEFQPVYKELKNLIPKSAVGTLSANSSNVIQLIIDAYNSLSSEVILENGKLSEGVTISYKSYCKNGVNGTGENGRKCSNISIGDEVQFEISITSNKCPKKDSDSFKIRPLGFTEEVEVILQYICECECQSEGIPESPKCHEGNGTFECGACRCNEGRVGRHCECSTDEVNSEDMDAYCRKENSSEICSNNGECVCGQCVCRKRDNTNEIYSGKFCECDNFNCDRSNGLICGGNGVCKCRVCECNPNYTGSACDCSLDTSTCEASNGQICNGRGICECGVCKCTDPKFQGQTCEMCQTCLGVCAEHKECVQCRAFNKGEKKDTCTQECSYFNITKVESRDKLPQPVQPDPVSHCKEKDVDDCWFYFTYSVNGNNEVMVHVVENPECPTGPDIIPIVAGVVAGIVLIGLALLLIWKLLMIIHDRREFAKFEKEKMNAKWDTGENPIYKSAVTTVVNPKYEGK
UniProt P13612, 34-1032 limits assumed: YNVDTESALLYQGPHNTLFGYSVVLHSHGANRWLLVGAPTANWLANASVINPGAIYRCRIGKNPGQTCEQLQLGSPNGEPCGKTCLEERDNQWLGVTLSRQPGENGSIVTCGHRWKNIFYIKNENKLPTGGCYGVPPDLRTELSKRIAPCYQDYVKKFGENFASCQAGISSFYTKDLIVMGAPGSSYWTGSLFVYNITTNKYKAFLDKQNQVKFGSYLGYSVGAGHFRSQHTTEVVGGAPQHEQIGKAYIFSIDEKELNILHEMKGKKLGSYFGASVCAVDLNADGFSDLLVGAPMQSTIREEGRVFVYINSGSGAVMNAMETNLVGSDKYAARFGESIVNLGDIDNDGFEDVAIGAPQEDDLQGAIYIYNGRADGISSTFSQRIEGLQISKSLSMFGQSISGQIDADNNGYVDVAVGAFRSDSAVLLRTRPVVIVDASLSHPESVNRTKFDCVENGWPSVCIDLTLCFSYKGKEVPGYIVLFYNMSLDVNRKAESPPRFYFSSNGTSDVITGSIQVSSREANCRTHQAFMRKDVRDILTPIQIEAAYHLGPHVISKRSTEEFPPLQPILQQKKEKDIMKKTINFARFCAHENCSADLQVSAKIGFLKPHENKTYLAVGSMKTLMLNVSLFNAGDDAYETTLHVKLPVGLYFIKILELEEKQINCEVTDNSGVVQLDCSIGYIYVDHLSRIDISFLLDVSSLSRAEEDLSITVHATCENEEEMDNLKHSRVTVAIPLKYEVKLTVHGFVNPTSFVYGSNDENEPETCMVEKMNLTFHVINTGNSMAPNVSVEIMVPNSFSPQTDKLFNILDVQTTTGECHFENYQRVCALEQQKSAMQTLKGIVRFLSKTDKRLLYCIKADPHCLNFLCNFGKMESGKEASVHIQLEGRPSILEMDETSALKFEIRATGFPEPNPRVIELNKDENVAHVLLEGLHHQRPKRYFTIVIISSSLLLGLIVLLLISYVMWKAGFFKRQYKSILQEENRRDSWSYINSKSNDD

According to US6482849B1, “Inhibitors of α4β1 mediated cell adhesion” (Tanabe Seiyaku Co., Ltd., priority 1997, dated 2002):

Legend:
[1] = target: α4β1 integrin (Jurkat cell adhesion to immobilized CS-1 derived peptide CLHPGEILDVPST) (Homo sapiens, UniProt P05556+P13612); test: Jurkat-CS-1 Assay; details: read-out: IC50 Jurkat CS-1; Jurkat cells on CS-1 peptide coated plates
Description: The CS-1 derived peptide, CLHPGEILDVPST, and the scrambled control peptide, CLHGPIELVSDPT, were synthesized on a Beckman 990 synthesizer using t-Boc methodology. The peptides were immobilized onto microtiter plates using the heterobifunctional crosslinker 3-(2-pyridyldithio)propionic acid N-hydroxysuccinimide ester (SPDP) as reported by Pierschbacher et al., Proc. Natl. Acad. USA, 80:1224-1227 (1983). Microtiter plates were coated with 20 μg/ml HSA for 2 hr. at room temperature, washed once with PBS and derivatized with 10 μg/ml SPDP for 1 hr. After washing, 100 μl of a 100 μg/ml cysteine containing peptide solution which had been recently dissolved was added to the wells and allowed to crosslink to the plates overnight at 4° C. Unbound peptide was removed from plates by washing with PBS. To block non-reacted sites, the plates are coated with 100 μl of a 2.5 mg/ml BSA solution in PBS for 1 hr. at 37° C. 100 μl of Jurkat cells (2.5×10^6 cells/ml) in DMEM plus BSA (2.5 mg/ml) was mixed with an appropriate concentration of the compound to be tested and the mixture was added to peptide coated dishes and incubated for 1 hr. at 37° C. Generally 100, 20, 5 and 1.25 μM concentrations of the compound were tested.
Following this incubation the plates were washed once with PBS and the attached cells were fixed with 3% paraformaldehyde in PBS and stained with 0.5% toluidine blue in 3.7% formaldehyde. The cells were stained overnight at room temperature and the optical density at 590 nm of toluidine blue stained cells was determined using a vertical pathway spectrophotometer to quantitate attachment (VMAX Kinetic Microplate Reader, Molecular Devices, Menlo Park, Calif.). This procedure is a modification of a previously published method (Cardarelli et al, J. Biol. Chem., 269:18668-18673 (1994) and Cardarelli et al, Proc. Natl. Acad. Sci. USA, 83:2647-2651 (1986)).

[2] = target: α4β1 integrin (Jurkat T-cell adhesion to IL-1 stimulated endothelial cell monolayers) (Homo sapiens, UniProt P05556+P13612); test: Jurkat-Endothelial Cell Adhesion Assay (Jurkat EC); details: read-out: IC50 Jurkat EC; Jurkat cells on IL-1 stimulated HUVEC monolayers
Description: The following assay established the activity of the present compounds in inhibiting β1-mediated cell adhesion in a representative in vitro system. This assay measures the adhesive interactions of a T-cell line, Jurkat, known to express the α4β1 integrin, to endothelial monolayers in the presence of test compounds. The test compounds were added in increasing concentrations to T-cells and then the T-cell compound mixture was added to IL-1 stimulated endothelial cell monolayers. The plates were incubated, washed and the percentage of attached cells was quantitated. […] Human umbilical vein endothelial cells were purchased from Clonetics (San Diego, Calif.) at passage number 2. The cells were grown on 0.5% porcine skin gelatin pre-coated flasks (Sigma, St. Louis Mo.) in EGM-UV media (Clonetics, San Diego, Calif.) supplemented with 10% fetal bovine serum. Cells are refed every 2-3 days reaching confluence by day 4 to 6. […] The endothelial cells are not used following passage 6. Am The T-cell line Jurkat was obtained from American Type Tissue Culture Collection (Rockville, Md.) and the cells were cultured in RPMI containing 10% fetal calf serum. The cells were washed twice in Hank's Balanced Salt Solution (HBSS) and resuspended in Dulbecco's […] Eagle's Media (DMEM) containing 2.5 mg/ml Human Serum Albumin (HSA). Jurkat cells (1×10^6 cells/ml) were stained with 10 ng/ml BCECF-AM z z (Molecular Probes, Eugene, Ore.)) in HBSS without phenol red. The cells were loaded with BCECF for 60 minutes in the dark at 37° C., washed 2 times, and resusupended in DMEM-HSA solution.
Confluent endothelial monolayers, grown in 96-well tissue culture plates, were stimulated for 4 hr. at 37° C. with 0.1 ng/ml (˜50 U/ml) recombinant IL-1 (Amgen, Thousand Oaks, Calif.). Following this incubation, the monolayers were washed twice with HBSS and 0.1 ml of DMEM-HSA solution was added. Jurkat cells (5×10^5 cells) were combined with the appropriate concentration of the test compound and 0.1 ml of the Jurkat cell-compound mixture was added to the endothelial cell monolayers. Generally, 100, 20, 5 and 1.25 μM compound concentrations were tested. […] The plates were placed on ice for 5 minutes to allow for Jurkat cell settling and the plates were incubated at 37° C. for 20 minutes. Following this incubation, the monolayers were washed twice with PBS containing 1 mM calcium chloride and 1 mM magnesium chloride and the plates were read using a Millipore Cytofluor 2300 (Marlboro, Mass.). Fluorescence in each well was measured as Arbitrary Fluorescence Units and percent adhesion in the absence of compound was adjusted to 100% and the % adhesion in the presence of compound was calculated. Monolayers were also fixed in 3% paraformaldehyde and evaluated microscopically to verify the adhesion. This procedure is a modification of a previously published method (Cardarelli et al., J. Biol. Chem. 269:18668-18673 (1994)).

| Structure (SMILES) | IC50 [1] [nM] | IC50 [2] [nM] |
| --- | --- | --- |
| COC(=O)[C@H](Cc1ccc(NC(=O)c2ccc(Cl)c(Cl)c2)cc1)NC(=O)[C@H]1CC[C@@](C)(C(=O)O)C1(C)C | 500 to 1000 |  |
| COC(=O)[C@H](Cc1ccc(NC(=O)c2cc(Br)ccc2Br)cc1)NC(=O)[C@H]1CC[C@@](C)(C(=O)O)C1(C)C |  | 5000 to 10000 |
| COC(=O)[C@H](Cc1ccc(NC(=O)c2c(C)cccc2Cl)cc1)NC(=O)[C@H]1CC[C@@](C)(C(=O)O)C1(C)C | 80 to 500 | 800 to 5000 |
| COC(=O)[C@H](Cc1ccc(NC(=O)c2cc(Cl)ccc2Cl)cc1)NC(=O)[C@H]1CC[C@@](C)(C(=O)O)C1(C)C | 500 to 1000 |  |
| CN(C)C(=O)[C@]1(C)CC[C@H](C(=O)N[C@@H](Cc2ccc(OCc3c(Cl)cccc3Cl)cc2)C(=O)O)C1(C)C |  | 800 to 5000 |
| COC(=O)[C@H](Cc1ccc(OCc2c(Cl)cccc2Cl)c([N+](=O)[O-])c1)NC(=O)[C@H]1CC[C@@](C)(C(=O)O)C1(C)C |  | 5000 to 10000 |
| CC1C(C(=O)Nc2ccc(C[C@H](NC(=O)[C@H]3CC[C@@](C)(C(=O)O)C3(C)C)C(=O)O)cc2)=Cc2ccccc21 (stereo partly drawn) | < 80 | < 800 |
